Biological target: canine MC5R (Canis lupus familiaris, UniProt A0A8I3MI44)
Conditions: read-out: EC50 of α-MSH stimulated cAMP accumulation; clone C9, canine MC5R/HEK293 cells

Chains of the proteins cited; added tags and fusions are not shown. Residues count along the entry.
UniProt A0A8I3MI44, 1-325: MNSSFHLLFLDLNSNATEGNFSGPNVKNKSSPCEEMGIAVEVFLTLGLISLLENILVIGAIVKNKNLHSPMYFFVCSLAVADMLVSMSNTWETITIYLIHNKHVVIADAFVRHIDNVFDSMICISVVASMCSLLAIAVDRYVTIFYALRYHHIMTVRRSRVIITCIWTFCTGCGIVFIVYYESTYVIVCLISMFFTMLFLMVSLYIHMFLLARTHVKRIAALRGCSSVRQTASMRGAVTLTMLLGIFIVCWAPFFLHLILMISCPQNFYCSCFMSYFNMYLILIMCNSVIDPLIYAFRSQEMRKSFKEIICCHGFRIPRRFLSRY

α-melanocyte stimulating hormone [α-MSH]
EC50: 5 nM

— US20030110518A1, “Melanocortin-5 receptor sequences and uses thereof” (priority 2001, published 2003)
